# Molecular target: human κ-opioid receptor (OPRK1) (Homo sapiens, UniProt P41145)
# Protein sequences, listed by entry. Tags and fused reporters are not part of them. Lines headed by an entry give the natural chain unless they say otherwise; changes in a name come on top.
# UniProt P41145: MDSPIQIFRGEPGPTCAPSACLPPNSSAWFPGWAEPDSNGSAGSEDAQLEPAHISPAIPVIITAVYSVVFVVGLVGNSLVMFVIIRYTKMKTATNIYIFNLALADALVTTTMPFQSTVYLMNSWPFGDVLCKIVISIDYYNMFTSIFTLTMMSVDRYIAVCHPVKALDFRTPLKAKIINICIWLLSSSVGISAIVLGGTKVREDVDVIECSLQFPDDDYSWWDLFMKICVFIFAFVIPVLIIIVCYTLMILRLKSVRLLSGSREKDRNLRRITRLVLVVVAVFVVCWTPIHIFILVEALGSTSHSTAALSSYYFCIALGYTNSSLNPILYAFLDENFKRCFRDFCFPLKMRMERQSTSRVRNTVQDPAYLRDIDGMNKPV
# Assay: Forskolin-induced cAMP accumulation assay, KOR antagonist mode
# Conditions: versus EC90 of U50488H; Imax normalized to nor-BNI
smiles,measurement,value
"Oc1ccc2c3c1O[C@H]1c4[nH]c5c(c4C[C@@]4(O)[C@@H](C2)N(CC2CC2)CC[C@]314)C[C@@]1(O)[C@H]2Cc3ccc(O)c4c3[C@@]1(CCN2CC1CC1)[C@H]5O4 [nor-BNI, reference compound]",KOR Antagonist %Imax ± SEM,102 ± 1%

# Source: paper PMC10708259 (Molecules, 2023)
